Source: patent publication US8993566B2, “Quinoline compound composing 1,2,4-triazine-dione and use thereof” (Wuhan Shengyun Biopharma Co., Ltd., priority 2012, dated 2015)

By UniProt entry, the sequences of proteins in these tests, tags left out. Residues count along the entry.
UniProt P08581, 956-1390: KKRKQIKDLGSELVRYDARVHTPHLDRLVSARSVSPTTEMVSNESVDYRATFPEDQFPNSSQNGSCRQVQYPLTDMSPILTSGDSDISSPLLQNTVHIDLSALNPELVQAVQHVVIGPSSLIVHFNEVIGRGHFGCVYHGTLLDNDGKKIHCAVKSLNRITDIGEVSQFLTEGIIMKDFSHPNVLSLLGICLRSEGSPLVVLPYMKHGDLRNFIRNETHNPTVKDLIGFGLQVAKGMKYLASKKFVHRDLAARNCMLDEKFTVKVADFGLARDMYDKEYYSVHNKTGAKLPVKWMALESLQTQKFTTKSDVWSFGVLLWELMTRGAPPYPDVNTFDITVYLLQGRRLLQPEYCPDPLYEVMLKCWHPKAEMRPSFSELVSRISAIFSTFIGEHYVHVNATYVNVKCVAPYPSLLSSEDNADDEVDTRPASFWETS

Biological target: T1, c-Met kinase (His-tagged recombinant human Met (amino acids 974-end)) (Homo sapiens, UniProt P08581)
T1 construct: His-tagged recombinant human Met (amino acids 974-end); His
Assay: c-Met Enzyme Activity Inhibition Assay (ELISA)
Type: biochemical
Conditions: 50 pM c-Met, 5 μM ATP, room temperature 20 min
Experimental: c-Met Enzyme Activity Inhibition Assay
The assay for the determination of c-Met kinase activity is based on an enzyme linked immunosorbant assay (ELISA). A compound of Formula I, 50 pM c-Met (His-tagged recombinant human Met (amino acids 974-end), expressed by baculovirus), and 5 μM ATP in an assay buffer (25 mM MOPS, pH 7.4, 5 mM MgCl2, […], 100 μM sodium orthovanadate, 0.01% Triton X-100, 1 mM DTT, final DMSO concentration 1% (v/v)) were incubated on a plate coated with 0.25 mg/mL POT at room temperature for 20 min. The reaction mixture was removed by washing and the phosphorylated polymer substrate was detected with 0.2 μg/mL phosphotyrosine specific monoclonal antibody (PY20) conjugated to horseradish peroxidase (HRP). After the addition of 1M phosphoric acid to stop the development, the chromogenic substrate (TMB) color was quantitated by spectrophotometry at 450 nm.

## N-[3-fluoro-4-[6-methoxy-7-[3-(1-piperidinyl)propyloxy]quinolin]-4-oxy]phenyl]-2-phenyl-4-benzyl-3,5-dicarbonyl-2,3,4,5-tetrahydro-1,2,4-triazine-6-carboxamide [Example 46]
  IC50 for inhibiting c-Met kinase: 8.2 mg/L

## N-[3-fluoro-4-[6-methoxy-7-[3-(4-morpholinyl)propyloxy]quinolin]-4-oxy]phenyl]-2-(2,4-dichlorophenyl)-4-benzyl-3,5-dicarbonyl-2,3,4,5-tetrahydro-1,2,4-triazine-6-carboxamide [Example 43]
  IC50 for inhibiting c-Met kinase: 3.8 mg/L
